Measured values published in patent USRE39197E1, “Cell adhesion-inhibiting antiinflammatory and immune-suppressive compounds” (Abbott Laboratories, priority 1998, dated 2006).

By UniProt entry, the sequences of proteins in these tests, tags left out. Residues count along the entry.
UniProt P20701, 26-1170: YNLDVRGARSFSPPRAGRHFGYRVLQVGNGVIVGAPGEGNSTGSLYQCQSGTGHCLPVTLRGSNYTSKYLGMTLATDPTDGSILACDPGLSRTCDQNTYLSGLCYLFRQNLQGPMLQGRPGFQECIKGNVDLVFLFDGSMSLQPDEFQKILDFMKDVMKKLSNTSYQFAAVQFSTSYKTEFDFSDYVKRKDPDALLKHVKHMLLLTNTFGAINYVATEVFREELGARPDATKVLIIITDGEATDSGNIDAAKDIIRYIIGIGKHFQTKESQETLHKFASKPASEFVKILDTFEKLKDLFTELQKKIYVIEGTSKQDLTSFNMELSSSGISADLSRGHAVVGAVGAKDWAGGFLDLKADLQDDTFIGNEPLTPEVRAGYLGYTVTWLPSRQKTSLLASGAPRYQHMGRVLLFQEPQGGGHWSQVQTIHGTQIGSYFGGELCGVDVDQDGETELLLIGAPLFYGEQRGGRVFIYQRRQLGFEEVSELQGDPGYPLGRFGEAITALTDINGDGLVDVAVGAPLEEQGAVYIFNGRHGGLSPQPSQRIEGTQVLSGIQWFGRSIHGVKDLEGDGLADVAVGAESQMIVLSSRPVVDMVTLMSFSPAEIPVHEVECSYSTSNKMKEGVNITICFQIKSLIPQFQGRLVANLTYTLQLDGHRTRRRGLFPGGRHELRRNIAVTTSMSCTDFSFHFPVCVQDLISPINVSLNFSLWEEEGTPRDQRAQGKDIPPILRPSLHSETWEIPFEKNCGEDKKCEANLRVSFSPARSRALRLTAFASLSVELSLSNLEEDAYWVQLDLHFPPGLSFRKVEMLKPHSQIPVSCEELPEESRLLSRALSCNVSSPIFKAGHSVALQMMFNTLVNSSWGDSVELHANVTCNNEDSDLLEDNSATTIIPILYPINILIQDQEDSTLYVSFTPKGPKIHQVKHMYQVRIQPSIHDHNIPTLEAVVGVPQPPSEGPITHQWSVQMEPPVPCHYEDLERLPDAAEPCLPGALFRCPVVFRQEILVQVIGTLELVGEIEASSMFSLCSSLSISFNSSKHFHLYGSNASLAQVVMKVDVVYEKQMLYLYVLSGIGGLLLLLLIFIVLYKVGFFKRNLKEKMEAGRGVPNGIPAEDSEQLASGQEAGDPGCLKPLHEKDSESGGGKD

Molecular target: T1, interaction between the integrin LFA-1 and its adhesion partner ICAM-1 (Homo sapiens, UniProt P20701)
T1 construct: Recombinant LFA-1 (100 μL of 0.7 μg/ml mL, ICOS Corporation) in D-PBS; purchased ICOS Corporation
Assay: ICAM-1/LFA-1 Biochemical Interaction Assay
Assay type: binding
Conditions: read-out: % inhibition @ 4 μM

inhibition at 4 µM: 94%
Structure (SMILES): CC(=O)N1CCN(C(=O)/C=C/c2ccc(Sc3ccccc3C(C)C)c([N+](=O)[O-])c2)CC1 [Example 50, (2-iso-Propylphenyl)[2-nitro-4-(E-((4-acetylpiperazin-1-yl)carbonyl)ethenyl)phenyl]sulfide]
